This is an account of results in IntAct's records for PubMed 21220120.

The target in this assay is rbbp5_human RBBP5 (UniProt Q15291).
Take “WD repeat-containing protein 5 (Homo sapiens) (from UniProt P61964) L240K”: the “effect of a mutation on the interaction” value is reported as “disrupting interaction”. Turning to “WD repeat-containing protein 5 (Homo sapiens) (from UniProt P61964) N225A”, the “effect of a mutation on the interaction” value is given as “disrupting interaction”.

Take “WD repeat-containing protein 5 (Homo sapiens) (from UniProt P61964) Q289A”: the “effect of a mutation on the interaction” value is recorded as “decreasing interaction”.
